Test results as given in patent US10076576B2, “Minimally toxic prodrugs” (priority 2012, dated 2018).

Key:
[1] = Stability in citrated human plasma; details: 5 hours incubation at 37° C. in citrated human plasma (pH7), 50 μM
Description: The drug conjugates (50 μM) were mixed with human plasma and incubated for 5 hours at 37° C. in a water bath. […] Supernatant was collected.

[2] = Stability in citrated human blood; details: 5 hours incubation at 37° C. in citrated human blood, 50 μM

PhAc-DLGP-doxorubicin
% metabolites released: Dox [1]: 2%
% metabolites released: GP-dox [1]: 0%
% metabolites released: P-Dox [1]: 1%
total % metabolites [1]: 3%
% metabolites released: Dox [2]: 2%
% metabolites released: GP-dox [2]: 0%
% metabolites released: P-Dox [2]: 2%
total % metabolites [2]: 4%

PhAc-GPGP-doxorubicin
% metabolites released: Dox [1]: 6%
% metabolites released: GP-dox [1]: 0%
% metabolites released: P-Dox [1]: 0%
total % metabolites [1]: 6%

PhAc-TSGP-doxorubicin
% metabolites released: Dox [1]: 4%
% metabolites released: GP-dox [1]: 4%
% metabolites released: P-Dox [1]: 0%
total % metabolites [1]: 8%

PhAc-KLGP-doxorubicin
% metabolites released: Dox [2]: 2%
% metabolites released: GP-dox [2]: 1%
% metabolites released: P-Dox [2]: 0%
total % metabolites [2]: 8%
